# High-throughput results: PubChem BioAssay, National Center for Advancing Translational Sciences (NCATS)
# Shown are actives, neighbours in structure and some others; about 0.92% of the full set was active somewhere.
# RXFP1 antag = antagonists of human relaxin receptor RXFP1; activity change, negative = inhibition, % at 57.5 µM; Q9HBX9; 350,000 compounds, 0.59% hits; HEK293-RXFP1, relaxin-stimulated cAMP HTRF, 30 min; active compounds read low;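 active = activity change of -60% or lower, but not beyond a set lower limit; inconclusive = change between -60% and -40%, or beyond the set limit; inactive = change above -40%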; also: % is scaled to controls: 0 for no effect and ±100 for the full control effect
# RXFP1 agonist = agonists of human relaxin receptor RXFP1; HEK293T-RXFP1 cAMP TR-FRET, 30 min; response scale: percent of porcine relaxin response, buffer zero; 370,000 compounds, 0.3% hits; Potency, µM (series often up to 57.5 µM), for the others: top-dose activation, actives largely listed as activators; Q9HBX9; also: potency is read from the fitted curve at half-maximal effect; % is scaled to controls: 0 for no effect and ±100 for the full control effect; nearly all actives have a fitted effect of over 60% in size
#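 Agonist response is measured as cAMP accumulation in an RXFP1-transfected HEK293T line under PDE4 inhibition. Values are scaled between buffer-only and 29 nM porcine relaxin, and EC50s come from standard Hill equation fits.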
# Luc counter = Kinase-Glo luciferase inhibition (counter-screen). Q27757. Kinase-Glo luciferase, ATP luminescence, 8 min. Potency, µM (top dose mostly 38.3 µM), inactives show top-dose activity change, negative = inhibition, usual class: inhibitors. 200,000 compounds, 0.28% hits. AID 1379; also: potency is read from the fitted curve at half-maximal effect; % is scaled to controls: 0 for no effect and ±100 for the full control effect; nearly all actives have a fitted effect of over 60% in size
#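 Kinase-Glo luciferase light output from ATP and luciferin was measured with 10 uM ATP, within the enzyme's linear range. Buffer: 50 mM imidazole pH 7.2, 50 mM KCl, 7 mM MgCl2, 0.01% Tween 20, 0.05% BSA; luminescence read after 8 min at ambient temperature.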
# PKM2 act = PKM2 (human) enzyme activation. purified PKM2, Kinase-Glo ATP luminescence, activation; response scale: 0% is enzyme alone, no compound. P14618. 260,000 compounds, 0.34% hits. AID 1631. Potency, µM (doses to about 57.5 µM), inactives show at the top dose activation, actives largely listed as activators; also: potency is read from the fitted curve at half-maximal effect; % is scaled to controls: 0 for no effect and ±100 for the full control effect; nearly all actives have a fitted effect of over 55% in size
#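 Purified hPK-M2 (>95% pure) converted ADP (0.1 mM final) to ATP with 0.5 mM PEP in 50 mM imidazole pH7.2, KCl, MgCl2, Tween 20, BSA; 1 h at room temperature. ATP detected by Kinase-Glo luminescence.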
# GALK inhibitor = inhibitors of human galactokinase | 270,000 compounds, 0.007% hits | Potency, µM (top dose mostly 57.5 µM), for the others: top-dose activity change, negative = inhibition, usual class: inhibitors | Purified GALK, Kinase-Glo residual ATP luminescence; also: potency is read from the fitted curve at half-maximal effect; % is scaled to controls: 0 for no effect and ±100 for the full control effect
#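 Compounds were pin-transferred into ATP buffer (35 uM final), then GALK plus galactose (5 nM, 100 uM final) was added. After 1 h at room temperature, Kinase-Glo Plus was added and luminescence read after 10 min.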
# miR-21 reporter = miR-21 reporter, rising signal; HeLa miR-21 FLuc reporter, luciferase, 48 h; Potency, µM (doses to about 38.3 µM), for inactives: at the highest dose reporter change, positive = more light; 340,000 tested, under 10 active; AID 2288; active = well fitted rising curve with a large enough effect; inconclusive = small, poorly fitted or top-dose-only effect; inactive = no such curve, though single readings can be large or run the other way;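 further: % of control where 0% means no effect; miR-21 action dims this reporter so a rising signal means less miR-21 action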
#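 Compounds were titrated across several concentrations (up to approximately 40 uM) and incubated 48 hours with HeLa miR-21-FLuc reporter cells (miR-21 target sequence downstream of FLuc, endogenous miR-21). Readout was firefly luciferase luminescence after lytic detection reagent.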
# Numbers without * were called inactive; ? = inconclusive; nt = no result given; [ ] = another dose, or the depositor's remark. Unless noted, calls follow the shape of the dose curve; as a rule, active = well fitted curve in the direction sought with a large enough effect; inconclusive = small, poorly fitted or top-dose-only effect, or another doubt; inactive = no such curve, though single readings can be large; an effect the other way counts as inactive or inconclusive.
# Letter code – A = RXFP1 antag; B = RXFP1 agonist; C = Luc counter; D = PKM2 act; E = GALK inhibitor; F = miR-21 reporter
> O=C(Nc1ccc2nc(SCC(=O)N3CCOCC3)sc2c1)c1cccc(F)c1
  A: -86* | B: 0% | C: nt | D: nt | E: nt | F: 27%
> O=C(Nc1ccc2nc(SCC(=O)N3CCOCC3)sc2c1)c1cccc(Br)c1
  A: -98* | B: 1% | C: nt | D: nt | E: nt | F: ?
> O=C(Nc1ccc2nc(SCC(=O)N3CCOCC3)sc2c1)c1ccc(F)cc1
  A: -30 | B: 8% | C: nt | D: nt | E: nt | F: 23%
> COc1ccc(Cl)cc1NC(=O)CSc1cn(CC(=O)N2CCCCC2)c2ccccc12
  A: -5 | B: 10% | C: nt | D: nt | E: nt | F: 30%
> Clc1ccc(CSC2=NCCN2)cc1Cl
  A: nt | B: nt | C: -6%[7.66 µM] | D: nt | E: nt | F: nt
> O=C(Nc1ccc2nc(SCC(=O)N3CCCC3)sc2c1)c1cccc(F)c1
  A: -101* | B: 6% | C: nt | D: nt | E: nt | F: ?
> COc1cc2c(cc1OC)C1N(CC2)C(=O)CCC12C(=O)CCCC2=O (stereo not drawn)
  A: nt | B: nt | C: -3% | D: nt | E: nt | F: nt
> COCC(=O)Nc1nc2ccccc2s1
  A: -10 | B: -1% | C: -3% | D: -3% | E: -4% | F: -43%
> CC1(C(=O)Nc2nc3ccccc3s2)CC1(Br)Br (stereo not drawn)
  A: -1 | B: 20µM* | C: nt | D: nt | E: 2% | F: -69%
> Fc1ccccc1-c1n[nH]c(=S)n1/N=C/c1c[nH]c2ccccc12
  A: -109* | B: 1% | C: nt | D: 5% | E: nt | F: 14%
> COc1ccc(C(O)(CCC(C)C)C(CN2CCOCC2)c2ccccc2)cc1 (stereo not drawn)
  A: ? | B: 5% | C: nt | D: nt | E: nt | F: 16%
> CCCCCC(O)(c1ccccc1)C(CN1CCOCC1)c1ccccc1 (stereo not drawn)
  A: -64* | B: 0% | C: nt | D: nt | E: nt | F: 17%
> CC(C)CCC(O)(c1ccccc1)C(CN1CCOCC1)c1ccccc1 (stereo not drawn)
  A: -80* | B: -1% | C: nt | D: nt | E: 10% | F: 15%
> CCCCCCC(O)(c1ccccc1)C(CN1CCOCC1)c1ccccc1 (stereo not drawn)
  A: ? | B: 0% | C: nt | D: nt | E: nt | F: 17%
> CC(C)c1cccc2nc3c(c([Si](C)(C)C)c12)Cn1c-3cccc1=O
  A: nt | B: nt | C: 0% | D: -4% | E: nt | F: nt
> CCN(c1cccc(C)c1)S(=O)(=O)c1ccc(O)c(C(=O)O)c1
  A: nt | B: nt | C: 1% | D: nt | E: nt | F: nt
> N#CC1c2ccccc2C=CN1C(=O)N(c1ccccc1)c1ccccc1 (stereo not drawn)
  A: -94* | B: nt | C: nt | D: nt | E: nt | F: nt
> COc1ccc(O)c(C(=O)c2cnn(-c3ccccc3)c2)c1
  A: -18 | B: 1% | C: nt | D: 3% | E: -2% | F: -56%
> COc1ccc(-n2cc(C(=O)c3ccccc3O)cn2)cc1
  A: -29 | B: 1% | C: 10µM* | D: -2% | E: 4% | F: 17%
> CCCOc1cccc(C(=O)Nc2ccc(-c3nc4ccccc4s3)c(Cl)c2)c1
  A: 0 | B: 14% | C: nt | D: nt | E: nt | F: -14%
> Cc1cccc(OCCc2c(C)[nH]c(=S)[nH]c2=O)c1
  A: -118* | B: 3% | C: 2% | D: 6% | E: 0% | F: 26%
> Cc1[nH]c(=S)[nH]c(=O)c1Cc1ccccc1
  A: -63* | B: -1% | C: -5% | D: 16% | E: 0% | F: -3%
> Cc1ccc2nc(SCC(=O)c3ccc4c(c3)NC(=O)CO4)[nH]c2c1
  A: -15 | B: 16% | C: 1% | D: -5% | E: 0% | F: -6%
> Cc1ccc(C)c(-n2nnnc2SCC(=O)c2ccc3c(c2)NC(=O)CO3)c1
  A: -11 | B: 4% | C: 2% | D: 14µM* | E: -1% | F: -9%
> O=[N+]([O-])c1cccc(S(=O)(=O)c2ccc(NCCO)c([N+](=O)[O-])c2)c1
  A: 17 | B: 3% | C: 1% | D: 16µM* | E: 3% | F: -1%
> CCOC(=O)c1c(NC(=O)COc2cccc3c2CCN(C)C3=O)sc2c1CCC2
  A: 15 | B: 0% | C: 2% | D: 4% | E: 0% | F: -5%
> CC(=O)Oc1c(I)cc(I)cc1C(=O)Nc1ccc(Cl)cc1
  A: -96* | B: 4% | C: nt | D: -4% | E: -8% | F: ?
> COc1ccc(Cl)cc1C(=O)Nc1ccc(NC(C)=O)cc1
  A: 0 | B: 1% | C: -1% | D: 6% | E: -3% | F: -19%
> CCCCn1c(SCC(=O)c2ccc(OC)c(OC)c2)nc2cc(S(N)(=O)=O)ccc21
  A: -75* | B: 3% | C: -1% | D: 28% | E: 0% | F: 0%

# Single records, as listed above. Values in the order: RXFP1 antag	RXFP1 agonist	Luc counter	PKM2 act	GALK inhibitor	miR-21 reporter
# Entry for `COc1ccc(Cl)cc1C(=O)Nc1ccc(NC(C)=O)cc1` = 0	1%	-1%	6%	-3%	-19%
# Entry for `CCOC(=O)c1c(NC(=O)COc2cccc3c2CCN(C)C3=O)sc2c1CCC2` = 15	0%	2%	4%	0%	-5%
# Entry for `CCCCn1c(SCC(=O)c2ccc(OC)c(OC)c2)nc2cc(S(N)(=O)=O)ccc21` = -75*	3%	-1%	28%	0%	0%
